The data set concerns BT474 cells. Kind of data set: In vitro cytotoxicity (alamarBlue). It counts as cell-based, human. As to conditions: BT474, 48 h. On the procedure:
In Vitro Cytotoxicity Assays BT474 cells (7000 cells/well) were seeded in 96-well black plates and incubated overnight for cell adherence. Then, 100 μL of normal or pH 6.5 medium with different concentrations of mPEG-PLL/CDA, PLL22-Gua and Gua-NPs were replaced into the plates. After 48 h of incubation, the medium was removed, and alamarBlue cell viability reagent was added. After another 4 h of incubation in 37° C., the color change and increased fluorescence can be detected using a microplate reader (excitation: 530-560 nm; emission: 590 nm). And the cell viability was calculated according to the following equation: Isample and Icontrol represent the fluorescent intensity of treated cells and untreated cell, respectively. Ibackground represents the fluorescent intensity of the well without cells. The data are presented as the average±SD (n=6). In addition, the cellular cytotoxicity of mPEG-PLL/CDA, and PLL22-Gua were also validated by alamarBlue assay in similar method.
Background: Alamar Blue is a resazurin reagent that responds to reducing activity.

With “methoxy poly(ethylene glycol)-b-poly(L-lysine) [mPEG-b-PLL]”, the “cytotoxicity (in words)” value is given as “showed cytotoxicity”.

The record behind these values is patent US20240327469A1, “FUNCTIONALISED POLYPEPTIDES, NANOPARTICLES AND USES THEREOF” (priority 2021, published 2024).
